Experimental data from publication PMC12363342, “Investigating the N-terminal linker histone H1 subtypes as substrates for JmjC lysine demethylases” (RSC Chemical Biology, 2025).
Each block holds one substance with its values, some of them ahead of it.

How the values were obtained:
Conditions in all cases: room temperature
KDM3B = test: LC-MS demethylation activity assay, KDM3B; type: biochemical, human
Description: (§1) The substrate specificity of JmjC KDMs for H1 was examined using liquid chromatography coupled to mass spectrometry (LC-MS) assays. The H1 peptides (10 μM) were incubated with the recombinant KDM (2 μM) in HEPES buffer at pH 7.5 at room temperature for 2 h, in the presence of ferrous(II) ammonium sulfate (FAS, 10 μM), sodium ascorbate (LAA, 100 μM) and 2OG (20 μM), and then quenched with formic acid. N^ε-Methylated H3K9 and H3K36 peptides were used as positive controls (Fig. 3–5 and Fig. S2–S6).[26]
(§2) The catalytic domains of the JmjC KDMs used were recombinantly produced as reported in either Escherichia coli (KDM4AM1-L359,[38] KDM4DM1-L359,[39] KDM4EM1-R336,[30] KDM6BD1141–E1590[40] and KDM3CL2157-L2500) or Sf9 cells (KDM3AT515–S1317, KDM3B882–1761, and KDM5DM1-D775) as N-terminally His6-tagged proteins. […] To produce proteins, DNA sequences encoding for KDM3A, KDM3B and KDM5D were inserted into the pFB-LIC vector, containing a TEV-protease cleavable N-terminal 6x-histidine tag via ligation independent cloning (LIC). The resultant plasmids were transformed into baculovirus and Sf9 cells ([…]) which were infected with the virus stock. The cells were grown at 27 °C and 90 rpm for 70 h. Cells were then harvested and suspended in 100 mL of lysis buffer (50 mM HEPES-NaOH, pH 7.4, 500 mM NaCl, 20 mM imidazole, 0.5 mM Tris (2-carboxyethyl)phosphine (TCEP), 5% (v/v) glycerol). […] The supernatant was loaded onto a Ni-NTA gravity column, washed with 10 column volume of lysis buffer and eluted using the elution buffer (50 mM HEPES-NaOH, pH 7.4, 500 mM NaCl, 300 mM imidazole, 0.5 mM TCEP, 5% (v/v) glycerol). The eluted protein was further purified using S200 gel filtration column chromatography (50 mM HEPES-NaOH, pH 7.4, 150 mM NaCl, 0.5 mM TCEP and 5% glycerol). Protein purity was analysed by SDS-PAGE and further confirmed by mass spectrometry. Selected fractions were pooled, concentrated and stored at −80 °C.
(§3) All reagents were purchased from Sigma Aldrich and were of the highest grade available. Ferrous(II) ammonium sulfate (FAS) solutions were prepared freshly by dissolving FAS to 400 mM in 20 mM HCl with subsequent dilution to 1 mM using deionized water. Fresh 2OG (10 mM) and LAA (50 mM) solutions were prepared by dissolving the solids in deionised water. All enzyme reactions were performed in 384-well plates (Greiner Bio-One) with a final reaction volume of 50 μL. Substrate mixtures contained 50 mM HEPES pH 7.5, LAA (100 μM), FAS (10 μM), 2OG (20 μM) and an H1 isoform peptide (10 μM). Reactions were initiated by the addition of enzyme to a final concentration of 2.0 μM. After 2 h, the reactions were stopped by the addition of 5 μL of 10% (v/v) LC-MS grade formic acid (Fisher Scientific) to a final concentration of 1% (v/v). […]

KDM6B = test: LC-MS demethylation activity assay, KDM6B; type: biochemical, human
Description: as §1, §2, §3

KDM3C = test: LC-MS demethylation activity assay, KDM3C; type: biochemical, human
Description: as §1, §2, §3

KDM5D = test: LC-MS demethylation activity assay, KDM5D; type: biochemical, human
Description: as §1, §2, §3

KDM4E = molecular target: T1, KDM4E (Homo sapiens, UniProt B2RXH2); test: LC-MS demethylation activity assay, KDM4E; type: biochemical
T1 construct: KDM4DM1-L359,[39]; KDM4EM1-R336,[30]; His6 (N); made in house; host or cells: Escherichia coli
T1 sequence (B2RXH2 1-336): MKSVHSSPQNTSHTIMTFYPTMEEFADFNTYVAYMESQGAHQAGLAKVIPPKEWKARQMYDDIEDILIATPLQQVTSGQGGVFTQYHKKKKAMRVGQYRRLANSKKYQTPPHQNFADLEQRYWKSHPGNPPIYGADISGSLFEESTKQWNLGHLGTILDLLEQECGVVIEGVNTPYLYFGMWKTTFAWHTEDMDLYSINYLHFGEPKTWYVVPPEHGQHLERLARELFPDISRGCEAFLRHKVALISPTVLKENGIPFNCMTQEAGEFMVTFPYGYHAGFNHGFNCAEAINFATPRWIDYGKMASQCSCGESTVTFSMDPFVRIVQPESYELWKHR
Description: as §1, §2
(§4) All reagents were purchased from Sigma Aldrich and were of the highest grade available. Ferrous(II) ammonium sulfate (FAS) solutions were prepared freshly by dissolving FAS to 400 mM in 20 mM HCl with subsequent dilution to 1 mM using deionized water. Fresh 2OG (10 mM) and LAA (50 mM) solutions were prepared by dissolving the solids in deionised water. All enzyme reactions were performed in 384-well plates (Greiner Bio-One) with a final reaction volume of 50 μL. Substrate mixtures contained 50 mM HEPES pH 7.5, LAA (100 μM), FAS (10 μM), 2OG (20 μM) and an H1 isoform peptide (10 μM). Reactions were initiated by the addition of enzyme to a final concentration of 2.0 μM. After 2 h, the reactions were stopped by the addition of 5 μL of 10% (v/v) LC-MS grade formic acid (Fisher Scientific) to a final concentration of 1% (v/v). Product analyses were performed by liquid chromatography-mass spectrometry (LC-MS) using an Agilent 1290 infinity II LC system equipped with an Agilent 1290 multisampler and an Agilent 1290 high speed pump and connected to an Agilent 6550 accurate mass iFunnel quadrupole time of flight (Q-TOF) mass spectrometer. 1 μL of the reaction mixture was injected onto a 1.8 μm × 2.1 × 50 mm ZORBAX RRHD Eclipse Plus C18 column (Agilent). Solvent A consisted of HPLC grade water containing 0.1% (v/v) formic acid and solvent B consisted of MeCN containing 0.1% (v/v) formic acid. Peptides were separated using a stepwise gradient (0 min – 95% solvent A, 1.0 min – 80% solvent A, 3.0 min – 45% solvent A, 4.0 min – 45% solvent A, 5.0 min – 0% solvent A, 6.0 min – 0% solvent A, 7.0 min – 95% solvent A). This was followed by a 3 min post-run with 95% solvent A to re-equilibrate the column. All flow rates were 0.2 mL min^−1.

KDM4A = test: LC-MS demethylation activity assay, KDM4A; type: biochemical, human
Description: as §1, §2, §4

KDM3A = test: LC-MS demethylation activity assay, KDM3A; type: biochemical, human
Description: as §1, §2, §3

KDM4D = molecular target: T2, KDM4D (Homo sapiens, UniProt Q6B0I6); test: LC-MS demethylation activity assay, KDM4D; type: biochemical
T2 construct: KDM4AM1-L359,[38]; KDM4DM1-L359,[39]; KDM4EM1-R336,[30]; His6 (N); made in house; host or cells: Escherichia coli
T2 sequence (Q6B0I6 1-359): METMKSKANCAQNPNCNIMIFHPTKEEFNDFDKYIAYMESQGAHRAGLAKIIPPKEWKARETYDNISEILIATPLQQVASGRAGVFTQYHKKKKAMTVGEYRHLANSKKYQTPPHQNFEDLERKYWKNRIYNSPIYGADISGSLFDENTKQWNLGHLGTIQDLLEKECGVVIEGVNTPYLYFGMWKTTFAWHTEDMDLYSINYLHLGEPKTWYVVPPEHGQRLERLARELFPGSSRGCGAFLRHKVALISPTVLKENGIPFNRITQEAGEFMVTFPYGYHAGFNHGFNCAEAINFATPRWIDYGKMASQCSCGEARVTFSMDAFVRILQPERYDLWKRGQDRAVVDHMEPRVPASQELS
Description: as §1, §2, §4

[1] = 2 μM KDM, 10 μM H1/H3 peptide, 10 μM FAS, 100 μM LAA, 20 μM 2OG, 50 mM HEPES pH 7.5, 2 h, D (di-) initial methylation state
[2] = 2 μM KDM4E, 10 μM peptide, standard conditions, 2 h
[3] = 2 μM KDM, 10 μM H1/H3 peptide, 10 μM FAS, 100 μM LAA, 20 μM 2OG, 50 mM HEPES pH 7.5, 2 h, M (mono-) initial methylation state

mono-methylated product formed by KDM4E (KDM4E; [2]): ~64%
substrate conversion (demethylation) by KDM4D (KDM4D; 2 μM KDM4D, 10 μM peptide, 10 μM FAS, 100 μM LAA, 20 μM 2OG, HEPES pH 7.5, 2 h): ~58%
Substance: ARTKQTARKme2STGGKA [Peptide H3K9me2, histone H3 residues 1-15 peptide with di-methylated K9; positive control, reference compound]
KDM3B demethylation activity, D (KDM3B; [1]): ● [green] (green dots indicate good demethylation (>50% conversion))
KDM6B demethylation activity, D (KDM6B; [1]): ● [red]
KDM3C demethylation activity, D (KDM3C; [1]): ● [red]
KDM5D demethylation activity, D (KDM5D; [1]): ● [red]
KDM4E demethylation activity, D (KDM4E; [1]): ● [green] (green dots indicate good demethylation (>50% conversion))
substrate conversion (demethylation) by KDM4A (KDM4A; 2 μM KDM4A, 10 μM peptide, 10 μM FAS, 100 μM LAA, 20 μM 2OG, HEPES pH 7.5, 2 h): ~36%
KDM4A demethylation activity, D (KDM4A; [1]): ● [yellow] (yellow dots indicate moderate demethylation (<50% conversion))
KDM3A demethylation activity, D (KDM3A; [1]): ● [green] (green dots indicate good demethylation (>50% conversion))
KDM4D demethylation activity, D (KDM4D; [1]): ● [green] (green dots indicate good demethylation (>50% conversion))

KDM4E demethylation activity, in words (KDM4E; [2]): lack of activity
KDM4D demethylation activity, in words (KDM4D; 2 μM KDM4D, 10 μM peptide, standard conditions, 2 h): lack of activity
KDM4D demethylation activity, M (KDM4D; [3]): ● [red]
Substance: ARTKQTARKmeSTGGKA [Peptide H3K9me, histone H3 residues 1-15 peptide with mono-methylated K9; positive control, reference compound]
KDM3B demethylation activity, in words (KDM3B; 2 μM KDM3B, 10 μM peptide, standard conditions, 2 h): excellent activity
KDM3B demethylation activity, M (KDM3B; [3]): ● [green] (green dots indicate good demethylation (>50% conversion))
KDM6B demethylation activity, in words (KDM6B; 2 μM KDM6B, 10 μM peptide, standard conditions, 2 h): lack of activity
KDM6B demethylation activity, M (KDM6B; [3]): ● [red]
KDM3C demethylation activity, in words (KDM3C; 2 μM KDM3C, 10 μM peptide, standard conditions, 2 h): lack of activity
KDM3C demethylation activity, M (KDM3C; [3]): ● [red]
KDM5D demethylation activity, in words (KDM5D; 2 μM KDM5D, 10 μM peptide, standard conditions, 2 h): lack of activity
KDM5D demethylation activity, M (KDM5D; [3]): ● [red]
KDM4A demethylation activity, in words (KDM4A; 2 μM KDM4A, 10 μM peptide, standard conditions, 2 h): lack of activity
KDM4A demethylation activity, M (KDM4A; [3]): ● [red]
KDM3A demethylation activity, in words (KDM3A; 2 μM KDM3A, 10 μM peptide, standard conditions, 2 h): excellent activity
KDM3A demethylation activity, M (KDM3A; [3]): ● [green] (green dots indicate good demethylation (>50% conversion))
